The target of this test is CFD (Homo sapiens, UniProt P00746). In words: Inhibitory effect on CFD. In kind it is biochemical.

Sequences of proteins named here, by UniProt entry; tags and fusion partners are left off. Residues count along the entry.
UniProt P00746, 26-253: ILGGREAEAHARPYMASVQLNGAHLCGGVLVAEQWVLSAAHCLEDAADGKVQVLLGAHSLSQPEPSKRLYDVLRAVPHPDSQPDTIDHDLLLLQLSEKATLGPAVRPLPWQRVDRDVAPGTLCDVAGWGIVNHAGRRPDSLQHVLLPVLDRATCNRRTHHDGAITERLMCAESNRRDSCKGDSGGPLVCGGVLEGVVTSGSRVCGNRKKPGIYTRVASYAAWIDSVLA

The term IC50 denotes the concentration that gives 50% inhibition. Low readings indicate greater potency in that assay, high ones weaker potency in that assay. `CC(=O)c1nn(CC(=O)N2[C@H](C(=O)Nc3nc(Br)ccc3C)C[C@@]3(C)C[C@@H]23)c2ccc(-c3cnc(C)nc3)cc12` [Compound 2, (1R,3S,5R)-2-(2-(3-acetyl-5-(2-methylpyrimidin-5-yl)-1H-indazol-1-yl)acetyl)-N-(6-bromo-3-methylpyridin-2-yl)-5-methyl-2-azabicyclo[3.1.0]hexane-3-carboxamide] registered an IC50 of 0.0268 µM.

The values are drawn from patent US20230126447A1, “OCULAR DRUG DEPOT FOR COMPLEMENT-MEDIATED DISORDERS” (priority 2020, published 2023).
